In the library only some 0.43% were active in any assay of this set; here they are far more common.
GIV-Gai inh: GIV-Galpha-i interaction inhibition. AID 1224905. actives 0.42% (n = 210,000). percent of control (FP), % (test concentration not listed). Galpha-i3/FITC-GIV peptide fluorescence polarization, 90 min; stronger effect = lower value; scaled: aluminum fluoride 0%, vehicle 100%;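 active = replicate mean at 85% of control or lower, very high polarization wells dropped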;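 also: wells of about 15 µL received 100 nL stock; the first replicate is given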
HCMV NEC inh: disrupts HCMV UL50-UL53 complex binding; HTRF UL50-UL53 interaction, normalized percent inhibition; inhibition, % (test concentration not listed); hit rate 0.15% among 190,000; in the data active = inhibition above about 27%, passing the limit was not always enough
* marks the source's active call; other numbers are inactive results; x = no result given.

SMILES	GIV-Gai inh	HCMV NEC inh
Cc1ccccc1N1C(=O)c2ccccc2C1Nc1ccc2c(c1)OCCO2 (stereo unspecified)	109.1	10.4
N#CC1=C(N)SC(N)=C(C#N)C1c1ccccc1F	x	-19.9
CC(C)C1C(C#N)=C(N)SC(N)=C1C#N	121.1	-15.1
N#CC1=C(N)SC(N)=C(C#N)C1c1cccc2ccccc12	-36.0*	-47.5
Cc1ccc(C2C(C#N)=C(N)SC(N)=C2C#N)c(C)c1	8.5*	-24.9
O=C(Cn1cnc2sccc2c1=O)NCCC1=CCCCC1	x	20.0
CCO/C=C1\C(=O)N(C)C(=O)c2ccccc21	x	76.7*
CCOc1ccc(/C=C2/C(=O)Nc3ccccc32)cc1	x	10.2
CCO/C=C1/C(=O)N(Cc2ccc(OC)cc2)C(=O)c2ccccc21	x	57.4*
CCO/C=C1/C(=O)N(c2ccc(Cl)cn2)C(=O)c2ccccc21	x	-21.6
CCO/C=C1/C(=O)NC(=O)c2ccccc21	x	98.4*
O=C1c2ccccc2C(=O)N1Cc1ccccc1	103.5	-14.3
CCN(CC)C(=O)c1ccc2c(c1)N(CC(=O)NCc1ccc3c(c1)OCO3)C(=O)CO2	99.6	8.1
CCC(C)NS(=O)(=O)c1ccc(N2C(=O)CCS2(=O)=O)cc1 (stereo unspecified)	102.8	-31.8
O=C(O)CN1C(=O)Cc2ccccc2C1=O	x	103.0*
COC(=O)CN1C(=O)Cc2ccccc2C1=O	98.4	-8.7
O=C(Cn1cc(-c2nc(-c3ccc(Cl)cc3)no2)ccc1=O)NC1CCCC1	103.6	x
C=CC(=O)Nc1cccc(Oc2cc(Cl)nc3[nH]ccc23)c1	x	33.8*
C=CC(=O)Nc1cccc(Oc2nc(Nc3ccc(N4CCN(C)CC4)cc3OC)ncc2Cl)c1	x	48.7
O=C(Nc1ncc(S(=O)(=O)c2ccc([N+](=O)[O-])cc2)s1)c1cc(-c2ccccc2)nc2ccccc12	103.4	-6.2
CCOc1ccccc1NC(=O)C(CC)n1nc(-c2ccccc2)c2c(c1=O)CCCC2 (stereo unspecified)	105.4	-5.6
COCCN1C(=O)/C(=C/c2cc(OC)c(O)cc2Br)SC1=S	-61.3*	-39.3
COc1cc(OC)c(OC)cc1/C=C1/SC(=S)N(CC(=O)O)C1=O	133.6	-50.6
O=C(NCCCN1CCCC1=O)Nc1cnc2ccccn2c1=O	93.2	-96.4
Cc1cccc(CSc2nc3cccnc3n2Cc2ccccc2F)c1	101.1	-21.8
Cc1ccc(Cn2c(SCc3cccc(C)c3)nc3cccnc32)cc1	105.9	22.2*
CCC(C(=O)NCCCOC)N1CCN(Cc2ccc(F)cc2)C(=O)C1=O (stereo unspecified)	109.1	-41.2
NNc1nc(-c2ccccc2)cc(-c2ccccc2O)n1	102.8	x
COc1ccc(-c2cc(-c3ccccc3O)nc(NC(N)=S)n2)cc1	x	51.0*
COc1ccc(NC(=O)CCCn2nc(-n3cccc3)c3c(C)cc(C)nc32)cc1	110.3	-5.1
Cc1[nH]cnc1CN1CCc2c(c3ccccc3n2C)C1=O	x	89.5*
Cc1[nH]cnc1CN1CCCCCCC1	101.4	-4.4
CC(C)c1nc(NCc2ccccc2)c(C#N)c2c1CCCC2	99.9	-8.4
N#Cc1c(NCc2ccccc2)ncc2c1Nc1ccccc1C2	73.3*	-20.2
CCCCCCCNC(=O)C1CCN(c2ccc(-c3ccccc3)nn2)CC1	98.3	31.0*
CC(C)CNC(=O)C1CCN(c2ccc(-c3ccccc3)nn2)CC1	102.8	-39.6

Of the compounds above, two contain an aryl thioether with sulfur outside any ring.
SMILES	GIV-Gai inh	HCMV NEC inh
Cc1cccc(CSc2nc3cccnc3n2Cc2ccccc2F)c1	101.1	-21.8
Cc1ccc(Cn2c(SCc3cccc(C)c3)nc3cccnc32)cc1	105.9	22.2*

Later entries.
SMILES	GIV-Gai inh	HCMV NEC inh
Cn1nc(COCc2ccccc2)c2c1CCN(C(=O)Cc1cccc(F)c1)C2	103.7	x
CCCN(c1nc2nc(C)c(Cl)c(C)n2n1)S(=O)(=O)c1ccc(C)cc1	97.1	-1.1
O/N=C1/CCCc2nn(-c3ccccc3)nc21	x	55.7*
O/N=C1\CCCc2c1nc(-c1ccccc1Cl)n2O	x	-3.1
CCOC(=O)c1ccc(NC(=O)CN(c2ccc(OC)c(OC)c2)S(=O)(=O)c2ccc(C)cc2)cc1	105.8	-13.1
O=c1oc2cc(O)ccc2cc1-c1nc(-c2ccc(Cl)c(Cl)c2)cs1	-69.2*	x
CC(=O)Oc1ccc2cc(-c3nc(-c4cccs4)cs3)c(=O)oc2c1	149.7	x
CC(=O)Oc1ccc2cc(-c3nc(-c4ccc(Cl)c(Cl)c4)cs3)c(=O)oc2c1	116.4	x
O=c1oc2cc(O)ccc2cc1-c1nc(-c2cccs2)cs1	-31.6*	x
CCOc1ccc2oc(C)c(C(=O)Nc3ccccc3OC)c2c1	102.0	4.3
CCN1/C(=C/C=C2/C(=O)N(C)C(=S)N2C)Oc2ccccc21	252.0	-10.2
CCCN1C(=S)N(CCO)C(=O)/C1=C/C=C1/Oc2ccccc2N1CCC(=O)O	-20.2*	-116.1
CC1CN(S(=O)(=O)c2c[nH]c(=O)[nH]c2=O)CC(C)O1 (stereo unspecified)	104.1	14.6
O=C(CC1SC(=O)NC1=O)Nc1ccccc1O (stereo unspecified)	105.8	-31.9
CN(CCC#N)C(=O)Cn1cnc2c(cnn2-c2ccc(F)cc2)c1=O	x	9.9
Cn1c(=O)c(NC2CCCCC2)c2c3c(cccc31)C(=O)c1ccccc1-2	3.5*	x
CCNc1c2c3c(cccc3n(C)c1=O)C(=O)c1ccccc1-2	x	-16.8
O=C1NC(=O)N(c2ccc(Br)cc2)C(=O)/C1=C/c1ccc(N2CCOCC2)o1	16.3*	-112.8
COc1ccc(N2C(=O)NC(=O)/C(=C\c3cc(Br)c(N4CCOCC4)o3)C2=O)cc1	110.8	0.3
NC(=O)c1ccccc1NC(=O)CSc1nc(N)cc(=O)[nH]1	102.0	-29.0
C/C(=C\C(=O)c1cccnc1)Nc1ccccc1O	113.7	-41.3
COC(=O)C1=CN(CC(C)C)C=C(C(=O)OC)C1c1cccc(F)c1	108.5	-10.3
COc1ccc(C2C=C(c3ccc(C)cc3)Nc3c(C(=O)Nc4ccccc4)cnn32)cc1 (stereo unspecified)	-66.7*	x
COc1ccc(C2=CC(c3cccc(OC)c3)n3ncc(C(=O)Nc4ccc(C)cc4)c3N2)cc1 (stereo unspecified)	107.6	1.8

Entries of single compounds as entered above. Order of values: GIV-Gai inh, HCMV NEC inh
Shown for O=C(CC1SC(=O)NC1=O)Nc1ccccc1O (stereo unspecified) → 105.8, -31.9
Shown for Cn1c(=O)c(NC2CCCCC2)c2c3c(cccc31)C(=O)c1ccccc1-2 → 3.5*, x
Shown for COc1ccc(N2C(=O)NC(=O)/C(=C\c3cc(Br)c(N4CCOCC4)o3)C2=O)cc1 → 110.8, 0.3
Shown for CC1CN(S(=O)(=O)c2c[nH]c(=O)[nH]c2=O)CC(C)O1 (stereo unspecified) → 104.1, 14.6
Shown for NC(=O)c1ccccc1NC(=O)CSc1nc(N)cc(=O)[nH]1 → 102.0, -29.0

Later entries:
SMILES	GIV-Gai inh	HCMV NEC inh
Cc1sc(C)c(S(=O)(=O)NCc2ccc(F)cc2)c1-c1cc(C(F)(F)F)on1	104.3	x
N#CC1=C(N)OC2=C(CC/C2=C/c2ccccc2)C1c1ccccc1 (stereo unspecified)	-56.6*	-42.5
CCN1CC2=C(OC(N)=C(C#N)C2c2ccc(F)cc2)/C(=C/c2ccc(F)cc2)C1 (stereo unspecified)	123.1	x
CCOC(=O)/C(C#N)=C/c1cn(-c2ccccc2)nc1-c1cccnc1	x	-22.2
O=C1CC(=O)Nc2ccccc2N1	100.1	-18.3
O=C1Cc2ccccc2C(=O)N1	x	100.1*
COc1cccc(NC(=O)n2ncc3cc(Cl)ccc32)c1	104.1	-8.4
CC(Oc1ccccc1)C(=O)N1CCCCCC1 (stereo unspecified)	98.8	-16.4
CC(C)(C)c1ccc(C2Oc3ccccc3C3CC(c4ccc(Br)cc4)=NN32)cc1 (stereo unspecified)	101.6	42.5*
CC(C)c1ccc(C2Oc3ccccc3C3CC(c4ccc(Br)cc4)=NN32)cc1 (stereo unspecified)	97.9	-1.7
COC(=O)Nc1ccc(SCC(=O)Nc2ccc(C)cc2)cc1	x	-3.7
Cc1nc(NCc2ccc(F)cc2)nc2c1C(=O)c1ccccc1-2	103.3	-39.7
CN(C)S(=O)(=O)c1ccc2c(c1)/C(=C/c1cc3c([nH]1)CCCC3)C(=O)N2	-20.7*	-17.6
O=C1Nc2ccc(Br)cc2/C1=C/c1cc2c([nH]1)CCCC2	x	-2.6
O=c1cc(N2CCN(S(=O)(=O)c3ccc(F)c(F)c3)CC2)nc2sc(-c3ccccc3)nn12	101.9	59.7*
